# Like-named read-outs stand apart in the source and are kept apart here.
# Protein sequences, listed by entry. Tags and fused reporters are not part of them. Chains listed by the source or under a name are the forms on record and can include a tag or linker. Residues count along the entry.
# UniProt A0ABI7Z2I4, 171-420: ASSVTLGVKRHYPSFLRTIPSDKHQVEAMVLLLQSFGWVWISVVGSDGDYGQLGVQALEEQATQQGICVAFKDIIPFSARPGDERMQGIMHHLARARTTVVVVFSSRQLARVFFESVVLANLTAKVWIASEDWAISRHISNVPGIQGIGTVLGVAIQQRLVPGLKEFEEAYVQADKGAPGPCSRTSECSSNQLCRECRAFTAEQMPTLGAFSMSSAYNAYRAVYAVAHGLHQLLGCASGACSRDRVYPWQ
# UniProt E3UMS2, 1-296: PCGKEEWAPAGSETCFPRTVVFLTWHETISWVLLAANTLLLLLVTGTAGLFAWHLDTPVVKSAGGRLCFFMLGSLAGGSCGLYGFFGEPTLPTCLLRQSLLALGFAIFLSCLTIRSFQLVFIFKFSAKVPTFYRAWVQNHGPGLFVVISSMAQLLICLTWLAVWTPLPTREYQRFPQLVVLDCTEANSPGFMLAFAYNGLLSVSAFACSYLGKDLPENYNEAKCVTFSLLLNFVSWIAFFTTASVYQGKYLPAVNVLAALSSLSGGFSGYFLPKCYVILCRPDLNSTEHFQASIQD
# UniProt Q49KI5, with tags, fused parts or gaps E206Q/F654L/N523D partner limits assumed: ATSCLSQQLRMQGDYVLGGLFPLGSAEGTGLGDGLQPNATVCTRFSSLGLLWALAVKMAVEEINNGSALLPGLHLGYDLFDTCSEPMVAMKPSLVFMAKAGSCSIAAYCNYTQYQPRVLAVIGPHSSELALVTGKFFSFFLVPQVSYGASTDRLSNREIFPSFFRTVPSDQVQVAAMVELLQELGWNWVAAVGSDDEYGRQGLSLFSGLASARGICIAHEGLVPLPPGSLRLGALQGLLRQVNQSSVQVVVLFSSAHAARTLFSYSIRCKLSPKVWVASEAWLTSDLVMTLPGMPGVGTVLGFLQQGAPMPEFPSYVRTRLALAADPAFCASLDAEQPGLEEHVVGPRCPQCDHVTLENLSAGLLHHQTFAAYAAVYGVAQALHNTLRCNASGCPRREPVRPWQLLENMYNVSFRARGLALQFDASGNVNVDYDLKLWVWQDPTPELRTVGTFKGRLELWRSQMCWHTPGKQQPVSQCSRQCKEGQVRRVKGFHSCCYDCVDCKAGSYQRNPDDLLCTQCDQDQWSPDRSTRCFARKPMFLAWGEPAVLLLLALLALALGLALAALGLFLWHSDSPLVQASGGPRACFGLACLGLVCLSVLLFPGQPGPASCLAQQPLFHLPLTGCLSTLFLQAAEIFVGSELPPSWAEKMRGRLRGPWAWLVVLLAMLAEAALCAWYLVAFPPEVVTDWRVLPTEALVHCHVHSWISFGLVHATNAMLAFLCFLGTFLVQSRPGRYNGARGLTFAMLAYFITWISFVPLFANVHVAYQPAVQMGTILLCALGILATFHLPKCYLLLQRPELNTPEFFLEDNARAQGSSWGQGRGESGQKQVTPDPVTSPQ
# Legend:
# cat T1R1/T1R3 receptor = cat T1R1/T1R3 receptor (Felis catus, UniProt A0ABI7Z2I4)
# T1R1/T1R3 receptor = T1R1/T1R3 receptor (Felis catus, UniProt E3UMS2); settings: for Max resp % of ALa + IMP / Thres + IMP: + IMP (0.2 mM); for Max resp % of Ala +IMP: +IMP (0.2 mM); for Activity: activation of T1R1/T1R3
Compound,Activity (cat T1R1/T1R3 receptor),Max. resp. % of IMP (cat T1R1/T1R3 receptor),"Thres +Alanine (T1R1/T1R3 receptor; + Alanine (20 nM), Table 17)","Max resp % of IMP + Alanine (T1R1/T1R3 receptor; + Alanine, Table 17)","Max resp ΔF/F + Alanine (T1R1/T1R3 receptor; + Alanine, Table 17)",Max resp % of ALa + IMP (T1R1/T1R3 receptor; Table 17),Thres + IMP (T1R1/T1R3 receptor; Table 17),"Thres +Alanine (T1R1/T1R3 receptor; +Alanine (20 mM), Table 18)",Max resp % of Ala +IMP (T1R1/T1R3 receptor; Table 18),Activity (T1R1/T1R3 receptor; Table 18),Activity (cat T1R1/T1R3 receptor; +Alanine (20 mM))
O=P(O)(O)OC[C@H]1O[C@@H](n2cnc3c(=S)nc[nH]c32)[C@H](O)[C@@H]1O,active,111.7 % of IMP,,,,,,,,,
CCOC(=O)C(NC(=O)c1ccc2c(c1)OCO2)C(C)C (stereo not shown),,,10 mM,25.6 % of IMP,0.3715,52.8 % of ALa,1 nM,10 mM,52.8 % of Ala,active,
O=P(O)(O)OC[C@H]1O[C@@H](n2cnc3c2ncn2ccnc32)C[C@@H]1O,,70.0 % of IMP,,,,,,,,,active
CCCC(C)NC(=O)/C=C/c1ccc(OC)c(OC)c1 (stereo not shown),,,1 mM,35.2 % of IMP,,86.9 % of ALa,0.55 nM,1 mM,86.9 % of Ala,active,

# From patent publication US20180168208A1 (priority 2014, published 2018)
